Source: patent US8298766B2, “Fluorescent dyes, methods of synthesis and applications thereof” (priority 2010, dated 2012)

Sequences of proteins named here, by UniProt entry; tags and fusion partners are left off. Residues count along the entry.
UniProt P02769, 25-607: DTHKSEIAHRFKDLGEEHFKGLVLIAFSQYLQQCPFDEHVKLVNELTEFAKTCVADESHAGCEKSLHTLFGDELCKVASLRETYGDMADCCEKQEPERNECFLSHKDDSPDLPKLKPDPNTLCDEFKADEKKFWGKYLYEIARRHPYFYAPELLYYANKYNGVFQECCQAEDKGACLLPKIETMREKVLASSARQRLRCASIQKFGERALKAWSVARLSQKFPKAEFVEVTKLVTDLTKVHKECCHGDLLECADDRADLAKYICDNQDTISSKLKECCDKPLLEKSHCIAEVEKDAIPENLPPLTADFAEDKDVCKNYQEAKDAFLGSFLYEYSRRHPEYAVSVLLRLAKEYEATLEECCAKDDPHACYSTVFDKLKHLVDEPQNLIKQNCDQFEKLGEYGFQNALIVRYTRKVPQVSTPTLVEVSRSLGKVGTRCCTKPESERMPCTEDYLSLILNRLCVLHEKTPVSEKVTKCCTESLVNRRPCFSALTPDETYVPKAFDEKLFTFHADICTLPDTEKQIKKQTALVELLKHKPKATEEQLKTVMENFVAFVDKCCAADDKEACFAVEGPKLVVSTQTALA

Molecular target: bovine serum albumin (Bos taurus, UniProt P02769)
Test: Fluorescence intensity before and after addition of bovine serum albumin
Format: binding
Settings: pH 7.0, 10 mM Tris-HCl buffer; dye 1 μM; bovine serum albumin 40 μg/mL
Protocol: The ordinate is the fluorescence increasing fold. The equipment used is a spectrofluorophotometer (FP-6500). […] The concentrations of calf thymus DNA and bovine serum albumin are both 40 μg/mL.
Finally each mixture of dye and BSA solution is diluted with pH 7.0, 10 mM Tris-HCl buffer solution to 3 mL and the fluorescence emission spectra are determined respectively after stabilization. […] Finally each mixture of dye and calf thymus DNA solution is diluted with pH 7.0, 10 mM Tris-HCl buffer solution to 3 mL and the fluorescence emission spectra are determined respectively after stabilization. […] The equipment used is a spectrofluorophotometer (FP-6500).

## CCN1C=C/C(=C\C=C\c2sc3ccccc3[n+]2CC)c2ccccc21 [M1, reference compound]
  fluorescence intensity increase with BSA solution: 5.5 fold
